Only a part is listed here, and it is no random draw. Active and inactive are the calls of the source. Cut-off read from the data, not from the text of the source: active = inhibition above about 40%; inactive = the rest.

Chains of the proteins cited; added tags and fusions are not shown.
UniProt P21453, whole entry, looked up: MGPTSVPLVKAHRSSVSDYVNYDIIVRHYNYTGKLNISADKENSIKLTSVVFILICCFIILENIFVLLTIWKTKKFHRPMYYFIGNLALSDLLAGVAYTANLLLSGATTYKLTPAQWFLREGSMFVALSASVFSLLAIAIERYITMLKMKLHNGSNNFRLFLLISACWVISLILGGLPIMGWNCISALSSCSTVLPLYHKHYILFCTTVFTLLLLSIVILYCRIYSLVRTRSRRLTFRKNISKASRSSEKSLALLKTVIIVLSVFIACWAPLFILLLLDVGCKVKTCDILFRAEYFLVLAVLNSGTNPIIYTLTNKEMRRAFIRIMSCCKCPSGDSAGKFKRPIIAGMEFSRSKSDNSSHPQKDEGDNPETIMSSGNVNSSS

The assay deals with Sphingosine 1-phosphate receptor 1 (Homo sapiens) (UniProt P21453). Description: blockade of human S1P1 receptor – cell-based, counter-screen for S1P4 antagonist project (AID 1564).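 Note: receptor stimulated with S1P near its EC80; 0% = agonist stimulated wells and 100% = vehicle only wells.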 To be noted: cell-based S1P1 antagonist counterscreen, at 4.98 µM, active compounds read high.

For the compound `C[N+]1=C2C=CC=CC=C2SC12C([N+](=O)[O-])=CC([N+](=O)[O-])=C[C-]2[N+](=O)[O-]` (stereo unspecified), the inhibition is active: 46%.

Values taken from PubChem BioAssay AID1564 (The Scripps Research Institute Molecular Screening Center, 2009).
